Specific cell lysis ratio (at E:T = 3:1), luciferase killing assay and cytotoxicity, real-time cytotoxicity assay (xCELLigence), E:T 3:1, 1:1 and 0.3:1, after 40 hours of co-culture data for two substances are collected here from patent US20250108114A1.

The target in assay [1] is CD19 on GFP/Luc+ Raji cells (human) (UniProt P15391). Put plainly: cell-based or functional assay.
In a further assay the target is mesothelin on Hela cells (UniProt Q13421). Put plainly: cell-based or functional assay.

In the case of “anti-CD19 chimeric antigen receptor of Comparative Example 1 (FMC63 scFv, hinge domain of CD8, transmembrane domain of CD8, 4-1BB, signal transduction domain of CD3ζ), on CAR-T cells of Comparative Example 1C (from UniProt P01732 183-206; Q07011 214-255; P20963 52-164)”, the Specific cell lysis ratio (at E:T = 3:1), luciferase killing assay in assay [1] lay within 60 to 70%. “anti-mesothelin-NKp30 chimeric antigen receptor of Example 2 (SS1 scFv, (G4S)3 hinge, NKp30 without immunoglobulin-like domain), on CAR-T cells of Example 2C (from UniProt O14931 129-201; P30273 19-86)”: the cytotoxicity, real-time cytotoxicity assay (xCELLigence), E:T 3:1, 1:1 and 0.3:1, after 40 hours of co-culture with mesothelin on Hela cells was 100%.
